From patent publication US20260224524A1, “A PHARMACEUTICAL COMPOSITION TARGETING MUTANT P53 AND HER2” (DR DOZO LABORATORIES, priority 2023, published 2026)

Tested on: human tumour xenograft MDA-MB-231
Test: Human tumour xenograft MDA-MB-231 model, tumour volume and relative tumour volume
Format: in vivo, mice
Details: Group B, 2.5 mg/kg i.v. day 1, 5, 9; day 5
Description: The therapeutic effect of SACC is evaluated against triple-negative breast cancer cell line MDA-MB-231 by analysing tumour volume and relative tumour volume. The study involved the use of six mice. These mice were administrated treatment according to the following Groups: […]

SMILES: COc1cccc2c1C(=O)c1c(O)c3c(c(O)c1C2=O)C[C@@](O)(C(=O)CO)C[C@@H]3O[C@H]1C[C@H](N)[C@H](O)[C@H](C)O1 [ADR, Adriamycin]
- RTV (Relative Tumour Volume): 1.06
